# Reference: patent US12492182B2, “Hydroxytriazine compounds and pharmaceutical use thereof” (Japan Tobacco Inc., priority 2015, dated 2025)
# Chains of the proteins cited; added tags and fusions are not shown.
# UniProt O14684, whole entry: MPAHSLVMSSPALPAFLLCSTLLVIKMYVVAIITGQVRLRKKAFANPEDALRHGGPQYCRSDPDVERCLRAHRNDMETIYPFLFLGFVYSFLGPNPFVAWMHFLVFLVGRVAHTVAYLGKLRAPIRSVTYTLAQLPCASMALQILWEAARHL
# What was measured:
# human mPGES-1 = human mPGES-1 (Homo sapiens, UniProt O14684); assay: Evaluation of human mPGES-1 enzyme inhibitory activity (HTRF measurement of PGE2); details: read-out: humans mPGES-1 enzyme inhibitory activity; IC50 value; microsome fraction of CHO-S cells expressing human mPGES-1, PGH2 substrate, PGE2 by HTRF
# Experimental: Experimental Example 1: Evaluation of Human mPGES-1 Enzyme Inhibitory Activity
# The human mPGES-1 enzyme inhibitory activity of a test article was evaluated according to the report of Xu et al. (XU, D et al. MF63 [2-(6-chloro-1H-phenanthro[9,10-d]imidazol-2-yl)-isophthalonitrile], a selective microsomal prostaglandin E synthase-1 inhibitor relieves pyresis and pain in preclinical models of inflammation. J Pharmacol Exp Ther. September 2008, Vol. 326, No. 3, pages 754-763). The amount of PGE2 produced by human mPGES-1 in the presence of a test article was measured by the HTRF (homogeneous time resolved fluorescence) method, and the human mPGES-1 enzyme inhibitory activity of the test article was determined. […]
# A DNA fragment containing human mPGES-1, which is added with a BamHI recognition cleavage sequence just before the translation initiation codon and an EcoRI recognition cleavage sequence just after the translation termination codon, was amplified by the PCR (Polymerase Chain Reaction) method using a human mPGES-1 expression plasmid DNA (pME-18S/iPGES-1) prepared in-house as a template. […] The base sequence of human mPGES-1 cloned to a vector was determined by the Dye Terminator method using BigDye Terminator v3.1 Cycle Sequencing Kit (Applied Biosystems, #4337455). […]
# The protein concentration of the microsome fraction was measured by the Bradford method (Protein Assay Kit, Bio-Rad). […]
# A549 cell = assay: Evaluation of PGE2 production inhibitory action using A549 cell (IL-1β stimulated); details: read-out: cell PGE2 production inhibitory activity (IC50 value), recombinant human IL-1β stimulation
# Experimental: Experimental Example 2: Evaluation of PGE2 Production Inhibitory Action Using A549 Cell
# A549 cell (Japan Health Sciences Foundation Research Resources Bank), which is cell line derived from humans lung cancer, was suspended in assay medium (Ham's F-12K (Wako, #080-08565) containing 2% FBS (Hyclone Laboratories, #SH30910.03), 100 units/mL penicillin and 100 μg/mL streptomycin (Invitrogen, #15140-122)), the suspension was added at 2.5×10^4 cells/100 μL/well to 96 well flat-bottom plate (Corning, #353072), and the plate was left standing for 20 hr in a CO2 incubator set at 37° C. The test article was serially diluted with DMSO (Nacalai Tesque, #13407-45), and then 20-fold diluted with the assay medium to prepare a test article solution having a ten-fold concentration of the final concentration. The final DMSO concentration during the reaction was set to 0.5% (v/v). […] The supernatant was collected at 180 μL/well, and the PGE2 concentration was measured using Prostaglandin E2 assay (CISbio Bioassays, #62P2APEC) according to the manual. […] Using EnVision 2104 (Perkin Elmer), the time-resolved fluorescence at 620 nm and 665 nm relative to the excitation light at 337 nm was measured. […]
# The PGE2 production inhibitory activity (%) of the test article was calculated according to the following Formula 3. […]
SMILES,pIC50 (human mPGES-1),pIC50 (A549 cell)
CCC[C@@H](C)Oc1ccc(-c2nc(O)nc(-c3cc(CNC(=O)C4(CF)CCCCCC4)ccc3Cl)n2)cn1,8.24,8.66
CCC[C@H](C)Oc1ccc(-c2nc(O)nc(-c3cc(CNC(=O)[C@@](C)(OC)C(F)(F)F)ccc3Cl)n2)cn1,8.27,8.31

# pIC50: −log10 of the molar value.
